{"source": "patent US9061984B2", "about": "(University of Louisville Research Foundation, Inc., priority 2008, dated 2015)", "test_system": "M. tuberculosis H37Rv", "assay": "Anti-tuberculosis bioassay (tetrazolium microplate MIC)", "assay_type": "cell-based", "conditions": "Mycobacterium tuberculosis, read-out: Mycobacterium MIC H37Rv", "data": [{"smiles": "COc1cc(/C=N\\Nc2ncnc3sc4c(c23)CCCC4)ccc1O", "note": "[II-15]", "values": [{"measurement": "MIC", "value": "> 25", "unit": "µg/mL"}]}]}
